PMC9736855, “Discovery of 3-Amino-1H-pyrazole-Based Kinase Inhibitors to Illuminate the Understudied PCTAIRE Family” (International Journal of Molecular Sciences, 2022)

Protein sequences, listed by entry. Tags and fused reporters are not part of them. Lines headed by an entry give the natural chain unless they say otherwise; changes in a name come on top. Residues count along the entry.
UniProt Q9P289, 1-300: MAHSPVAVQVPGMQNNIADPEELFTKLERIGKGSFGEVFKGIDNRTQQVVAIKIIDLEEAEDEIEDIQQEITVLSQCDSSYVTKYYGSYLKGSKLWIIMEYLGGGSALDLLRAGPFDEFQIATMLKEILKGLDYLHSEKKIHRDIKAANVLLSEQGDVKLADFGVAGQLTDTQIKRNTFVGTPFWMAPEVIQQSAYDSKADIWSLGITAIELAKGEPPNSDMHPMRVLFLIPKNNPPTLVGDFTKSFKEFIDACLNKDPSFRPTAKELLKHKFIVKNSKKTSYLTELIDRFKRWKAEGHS
UniProt Q2M2I8, 27-365: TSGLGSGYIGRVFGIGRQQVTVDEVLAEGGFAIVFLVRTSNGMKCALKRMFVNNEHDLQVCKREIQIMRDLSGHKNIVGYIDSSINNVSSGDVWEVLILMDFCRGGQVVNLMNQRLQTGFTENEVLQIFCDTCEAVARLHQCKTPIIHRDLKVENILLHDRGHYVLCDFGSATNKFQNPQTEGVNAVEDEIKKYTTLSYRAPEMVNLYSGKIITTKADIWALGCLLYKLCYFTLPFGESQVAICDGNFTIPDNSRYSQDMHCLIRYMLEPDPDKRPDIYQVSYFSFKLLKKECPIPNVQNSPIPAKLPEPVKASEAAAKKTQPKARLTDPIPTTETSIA
UniProt Q13873, 27-1038: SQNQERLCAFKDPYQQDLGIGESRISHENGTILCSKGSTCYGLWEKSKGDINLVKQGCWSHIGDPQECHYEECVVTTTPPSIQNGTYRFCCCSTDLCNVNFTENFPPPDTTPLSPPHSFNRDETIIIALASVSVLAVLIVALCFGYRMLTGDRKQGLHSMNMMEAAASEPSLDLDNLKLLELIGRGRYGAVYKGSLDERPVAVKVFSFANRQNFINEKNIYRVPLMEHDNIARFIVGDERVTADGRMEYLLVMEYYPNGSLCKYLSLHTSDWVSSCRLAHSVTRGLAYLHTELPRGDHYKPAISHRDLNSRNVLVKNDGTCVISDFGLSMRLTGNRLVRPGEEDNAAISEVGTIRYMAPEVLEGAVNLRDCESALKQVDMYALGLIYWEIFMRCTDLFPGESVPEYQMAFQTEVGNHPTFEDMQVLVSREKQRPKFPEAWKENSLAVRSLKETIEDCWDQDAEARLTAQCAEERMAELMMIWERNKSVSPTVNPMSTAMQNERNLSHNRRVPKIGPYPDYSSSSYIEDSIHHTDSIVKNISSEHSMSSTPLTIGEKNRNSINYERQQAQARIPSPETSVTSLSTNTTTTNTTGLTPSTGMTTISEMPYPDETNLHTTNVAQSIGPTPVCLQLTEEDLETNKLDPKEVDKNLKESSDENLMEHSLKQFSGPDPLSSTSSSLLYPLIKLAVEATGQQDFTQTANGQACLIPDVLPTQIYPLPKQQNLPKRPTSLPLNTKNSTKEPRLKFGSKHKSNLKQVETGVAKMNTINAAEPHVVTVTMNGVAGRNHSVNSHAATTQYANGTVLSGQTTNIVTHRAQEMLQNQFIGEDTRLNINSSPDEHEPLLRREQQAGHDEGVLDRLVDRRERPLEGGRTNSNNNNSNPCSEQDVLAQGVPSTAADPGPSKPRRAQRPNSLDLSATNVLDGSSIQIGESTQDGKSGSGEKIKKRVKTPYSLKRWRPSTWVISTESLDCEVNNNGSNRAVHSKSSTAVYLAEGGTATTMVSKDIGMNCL
UniProt Q13554, 11-303: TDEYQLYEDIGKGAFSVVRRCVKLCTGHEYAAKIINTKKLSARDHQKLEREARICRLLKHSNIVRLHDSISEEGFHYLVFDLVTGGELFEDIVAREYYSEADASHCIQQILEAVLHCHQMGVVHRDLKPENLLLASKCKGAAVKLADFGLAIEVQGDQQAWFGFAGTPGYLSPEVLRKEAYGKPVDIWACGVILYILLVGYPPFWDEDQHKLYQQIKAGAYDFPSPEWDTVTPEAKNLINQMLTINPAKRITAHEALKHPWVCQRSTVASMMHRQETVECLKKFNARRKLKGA
UniProt P29317, 596-900: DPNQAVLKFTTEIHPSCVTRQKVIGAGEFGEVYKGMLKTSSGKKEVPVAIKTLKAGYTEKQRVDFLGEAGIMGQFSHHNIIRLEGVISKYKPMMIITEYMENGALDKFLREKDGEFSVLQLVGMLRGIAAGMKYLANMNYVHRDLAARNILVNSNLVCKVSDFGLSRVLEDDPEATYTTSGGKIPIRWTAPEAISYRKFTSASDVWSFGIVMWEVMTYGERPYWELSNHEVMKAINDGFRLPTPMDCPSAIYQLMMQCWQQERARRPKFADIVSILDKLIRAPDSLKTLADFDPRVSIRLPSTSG
UniProt P45985, 102-367: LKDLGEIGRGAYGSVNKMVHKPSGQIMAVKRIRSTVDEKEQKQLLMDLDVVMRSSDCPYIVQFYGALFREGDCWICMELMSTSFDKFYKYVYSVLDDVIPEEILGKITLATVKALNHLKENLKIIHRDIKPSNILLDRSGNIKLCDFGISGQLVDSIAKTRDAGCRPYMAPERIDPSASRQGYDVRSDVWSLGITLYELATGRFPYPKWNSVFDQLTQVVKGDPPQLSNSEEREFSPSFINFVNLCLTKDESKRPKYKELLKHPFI
UniProt P52564, 53-314: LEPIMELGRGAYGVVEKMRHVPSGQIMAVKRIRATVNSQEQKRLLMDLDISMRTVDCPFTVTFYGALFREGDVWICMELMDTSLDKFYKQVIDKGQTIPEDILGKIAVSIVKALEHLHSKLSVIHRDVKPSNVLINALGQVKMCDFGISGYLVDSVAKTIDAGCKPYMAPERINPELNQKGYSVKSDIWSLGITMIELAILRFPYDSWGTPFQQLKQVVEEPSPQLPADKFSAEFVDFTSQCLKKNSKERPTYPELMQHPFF
UniProt P53779: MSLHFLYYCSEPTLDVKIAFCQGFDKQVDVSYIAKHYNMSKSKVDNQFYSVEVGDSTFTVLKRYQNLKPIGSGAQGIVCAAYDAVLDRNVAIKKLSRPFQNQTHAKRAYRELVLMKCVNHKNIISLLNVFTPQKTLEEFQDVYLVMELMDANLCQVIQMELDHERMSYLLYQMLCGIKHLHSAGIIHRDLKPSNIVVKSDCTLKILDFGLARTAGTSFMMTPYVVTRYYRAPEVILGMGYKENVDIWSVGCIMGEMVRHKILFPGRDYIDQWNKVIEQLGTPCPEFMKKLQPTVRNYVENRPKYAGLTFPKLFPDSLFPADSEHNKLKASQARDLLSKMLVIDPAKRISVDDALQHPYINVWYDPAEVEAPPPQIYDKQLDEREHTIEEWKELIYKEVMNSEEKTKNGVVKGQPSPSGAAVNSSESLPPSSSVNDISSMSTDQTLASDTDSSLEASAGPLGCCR
UniProt Q8TD08, 1-346: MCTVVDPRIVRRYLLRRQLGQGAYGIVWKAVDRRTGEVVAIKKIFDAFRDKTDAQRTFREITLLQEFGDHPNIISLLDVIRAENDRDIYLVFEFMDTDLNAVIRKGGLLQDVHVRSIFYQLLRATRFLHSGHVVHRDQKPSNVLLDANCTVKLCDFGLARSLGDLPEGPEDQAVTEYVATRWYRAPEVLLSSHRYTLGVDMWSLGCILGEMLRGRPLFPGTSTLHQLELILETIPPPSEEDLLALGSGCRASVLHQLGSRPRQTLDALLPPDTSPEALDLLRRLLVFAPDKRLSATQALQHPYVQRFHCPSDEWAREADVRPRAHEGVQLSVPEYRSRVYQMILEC
UniProt P45983, 1-364: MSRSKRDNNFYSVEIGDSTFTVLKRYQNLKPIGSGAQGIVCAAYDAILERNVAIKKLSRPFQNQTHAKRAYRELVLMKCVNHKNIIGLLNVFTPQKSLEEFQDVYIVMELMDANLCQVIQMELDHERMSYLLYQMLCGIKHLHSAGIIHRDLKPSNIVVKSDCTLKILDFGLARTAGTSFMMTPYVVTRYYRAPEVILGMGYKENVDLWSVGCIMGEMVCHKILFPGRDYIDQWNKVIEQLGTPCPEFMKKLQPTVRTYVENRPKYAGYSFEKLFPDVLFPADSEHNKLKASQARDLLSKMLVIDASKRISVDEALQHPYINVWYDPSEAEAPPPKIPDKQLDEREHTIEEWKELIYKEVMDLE
UniProt P27448: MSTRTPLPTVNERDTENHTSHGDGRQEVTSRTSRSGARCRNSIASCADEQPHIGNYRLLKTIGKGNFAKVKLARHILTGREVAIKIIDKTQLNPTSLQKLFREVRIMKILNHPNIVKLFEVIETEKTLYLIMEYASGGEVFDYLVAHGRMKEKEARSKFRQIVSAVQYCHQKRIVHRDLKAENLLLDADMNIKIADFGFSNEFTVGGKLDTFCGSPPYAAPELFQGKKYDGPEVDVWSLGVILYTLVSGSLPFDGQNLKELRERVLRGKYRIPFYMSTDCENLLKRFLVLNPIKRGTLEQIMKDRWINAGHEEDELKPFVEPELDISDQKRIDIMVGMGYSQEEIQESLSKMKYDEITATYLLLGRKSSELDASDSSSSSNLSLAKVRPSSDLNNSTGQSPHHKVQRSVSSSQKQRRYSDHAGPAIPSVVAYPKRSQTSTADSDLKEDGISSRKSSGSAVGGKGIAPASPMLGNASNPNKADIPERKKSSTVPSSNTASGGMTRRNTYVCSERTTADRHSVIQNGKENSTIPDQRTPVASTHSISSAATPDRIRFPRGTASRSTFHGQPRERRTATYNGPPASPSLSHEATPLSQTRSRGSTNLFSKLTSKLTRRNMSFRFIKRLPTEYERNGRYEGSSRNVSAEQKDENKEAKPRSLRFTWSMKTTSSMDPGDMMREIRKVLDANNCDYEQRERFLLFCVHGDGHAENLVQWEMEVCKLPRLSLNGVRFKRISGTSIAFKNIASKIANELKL
UniProt Q96PY6, 1-328: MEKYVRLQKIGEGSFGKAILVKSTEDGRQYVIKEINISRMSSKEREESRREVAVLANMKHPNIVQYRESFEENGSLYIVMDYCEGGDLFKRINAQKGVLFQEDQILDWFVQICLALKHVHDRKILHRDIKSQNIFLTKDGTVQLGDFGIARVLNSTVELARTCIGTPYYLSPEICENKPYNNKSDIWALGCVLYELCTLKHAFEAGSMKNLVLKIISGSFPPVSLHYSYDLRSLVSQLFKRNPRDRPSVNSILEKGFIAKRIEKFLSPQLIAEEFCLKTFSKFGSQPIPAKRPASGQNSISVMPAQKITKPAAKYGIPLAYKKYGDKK
UniProt Q96SB4, whole entry: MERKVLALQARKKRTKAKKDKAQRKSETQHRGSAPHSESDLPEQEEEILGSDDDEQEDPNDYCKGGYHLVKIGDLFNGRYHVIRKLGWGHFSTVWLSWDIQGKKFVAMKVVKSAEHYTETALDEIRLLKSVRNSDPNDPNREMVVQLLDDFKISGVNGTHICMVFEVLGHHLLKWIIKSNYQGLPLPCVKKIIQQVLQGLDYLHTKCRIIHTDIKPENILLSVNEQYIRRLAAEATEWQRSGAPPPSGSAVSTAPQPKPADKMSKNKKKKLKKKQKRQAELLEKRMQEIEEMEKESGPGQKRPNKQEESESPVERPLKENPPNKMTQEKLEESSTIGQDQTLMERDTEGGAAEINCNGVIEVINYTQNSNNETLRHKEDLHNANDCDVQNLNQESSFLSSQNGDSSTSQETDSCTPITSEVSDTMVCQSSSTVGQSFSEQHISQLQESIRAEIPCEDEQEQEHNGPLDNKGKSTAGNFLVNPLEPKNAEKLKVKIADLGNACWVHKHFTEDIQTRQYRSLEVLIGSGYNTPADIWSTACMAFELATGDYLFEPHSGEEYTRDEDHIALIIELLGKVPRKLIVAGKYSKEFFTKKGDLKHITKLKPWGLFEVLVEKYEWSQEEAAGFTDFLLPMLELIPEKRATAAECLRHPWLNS
UniProt Q6PHR2, 1-279: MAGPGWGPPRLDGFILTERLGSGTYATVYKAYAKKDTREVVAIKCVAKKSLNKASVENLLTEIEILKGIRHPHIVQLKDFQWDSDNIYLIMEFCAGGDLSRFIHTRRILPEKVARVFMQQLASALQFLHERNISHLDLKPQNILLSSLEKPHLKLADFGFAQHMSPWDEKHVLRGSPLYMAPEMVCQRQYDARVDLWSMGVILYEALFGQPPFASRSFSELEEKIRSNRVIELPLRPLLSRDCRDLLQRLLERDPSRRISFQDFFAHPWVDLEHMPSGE
UniProt P68400, 1-337: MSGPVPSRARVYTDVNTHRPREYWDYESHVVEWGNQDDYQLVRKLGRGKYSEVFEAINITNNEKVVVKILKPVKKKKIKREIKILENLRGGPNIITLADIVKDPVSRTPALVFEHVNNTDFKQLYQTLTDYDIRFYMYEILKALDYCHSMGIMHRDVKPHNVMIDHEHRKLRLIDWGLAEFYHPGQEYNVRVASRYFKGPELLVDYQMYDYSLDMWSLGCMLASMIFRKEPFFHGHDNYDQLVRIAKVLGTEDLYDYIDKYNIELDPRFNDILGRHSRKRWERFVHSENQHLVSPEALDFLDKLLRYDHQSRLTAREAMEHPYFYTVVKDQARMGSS

What was measured:
AKT3 = molecular target: T1, AKT3 (Homo sapiens, UniProt Q9Y243); test: DSF; format: binding
T1 construct: purchased in-house DSF panel (SGC Frankfurt)

[1] = system: in-house panel of 89–105 kinases; test: DSF selectivity screen; format: binding; conditions: number of kinases of the DSF panel
Source text: To investigate the selectivity profile of the different series, a differential scanning fluorimetry (DSF) assay was used. This assay offers a rapid and sensitive screening method that determines the denaturation temperature of a protein in absence and presence of a compound. This assay format measures the fluorescence of a dye, which depends on the folding state of the protein. The difference between the melting temperature (ΔTm) in the absence and presence of the compound represents the binding strength to the protein. We used an in-house panel of 89–105 kinases to screen all synthesized inhibitors (Tables S1–S3).
(§1) Measurements were performed in duplicates.

MST3 = molecular target: T2, MST3 (Homo sapiens, UniProt Q9Y6E0); test: DSF; format: binding
T2 construct: purchased in-house DSF panel (SGC Frankfurt)

MST4 = molecular target: T3, MST4 (Homo sapiens, UniProt Q9P289); test: DSF; format: binding
T3 construct: purchased in-house DSF panel (SGC Frankfurt)

AAK1 = molecular target: T4, AAK1 (Homo sapiens, UniProt Q2M2I8); test: DSF; format: binding
T4 construct: purchased in-house DSF panel (SGC Frankfurt)
Description: as §1

BMPR2 = molecular target: T5, BMPR2 (Homo sapiens, UniProt Q13873); test: DSF; format: binding
T5 construct: purchased in-house DSF panel (SGC Frankfurt)
Description: as §1

CAMK2B = molecular target: T6, CAMK2B (Homo sapiens, UniProt Q13554); test: DSF; format: binding
T6 construct: purchased in-house DSF panel (SGC Frankfurt)
Description: as §1

CAMK2D = molecular target: T7, CAMK2D (Homo sapiens, UniProt Q13557); test: DSF; format: binding;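 further: compound tested at 10 µM with 2 µM protein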
T7 construct: purchased in-house DSF panel (SGC Frankfurt)
Description: as §1

CK2A2 = molecular target: T8, CK2A2 (Homo sapiens, UniProt P19784); test: DSF; format: binding;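 further: compound tested at 10 µM with 2 µM protein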
T8 construct: purchased in-house DSF panel (SGC Frankfurt)
Description: as §1

CLK3 = molecular target: T9, CLK3 (Homo sapiens, UniProt P49761); test: DSF; format: binding
T9 construct: purchased in-house DSF panel (SGC Frankfurt)
Description: as §1

CSNK1D = molecular target: T10, CSNK1D (Homo sapiens, UniProt P48730); test: DSF; format: binding;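 further: compound tested at 10 µM with 2 µM protein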
T10 construct: purchased in-house DSF panel (SGC Frankfurt)
Description: as §1

DAPK3 = molecular target: T11, DAPK3 (Homo sapiens, UniProt O43293); test: DSF; format: binding
T11 construct: purchased in-house DSF panel (SGC Frankfurt)
Description: as §1

DMPK1 = molecular target: T12, DMPK1 (Homo sapiens, UniProt Q09013); test: DSF; format: binding
T12 construct: purchased in-house DSF panel (SGC Frankfurt)
Description: as §1

EPHA2 = molecular target: T13, EPHA2 (Homo sapiens, UniProt P29317); test: DSF; format: binding
T13 construct: purchased in-house DSF panel (SGC Frankfurt)
Description: as §1

GPRK5 = molecular target: T14, GPRK5 (Homo sapiens, UniProt P34947); test: DSF; format: binding
T14 construct: purchased in-house DSF panel (SGC Frankfurt)
Description: as §1

GSG2 = molecular target: T15, GSG2 (Homo sapiens, UniProt Q8TF76); test: DSF; format: binding
T15 construct: purchased in-house DSF panel (SGC Frankfurt)
Description: as §1

MAP2K1 = molecular target: T16, MAP2K1 (Homo sapiens, UniProt Q02750); test: DSF; format: binding
T16 construct: purchased in-house DSF panel (SGC Frankfurt)
Description: as §1

MAP2K4 = molecular target: T17, MAP2K4 (Homo sapiens, UniProt P45985); test: DSF; format: binding
T17 construct: purchased in-house DSF panel (SGC Frankfurt)
Description: as §1

MAP2K6 = molecular target: T18, MAP2K6 (Homo sapiens, UniProt P52564); test: DSF; format: binding
T18 construct: purchased in-house DSF panel (SGC Frankfurt)
Description: as §1

MAP3K5 = molecular target: T19, MAP3K5 (Homo sapiens, UniProt Q99683); test: DSF; format: binding
T19 construct: purchased in-house DSF panel (SGC Frankfurt)
Description: as §1

MAPK10 = molecular target: T20, MAPK10 (Homo sapiens, UniProt P53779); test: DSF; format: binding;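 further: compound tested at 10 µM with 2 µM protein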
T20 construct: purchased in-house DSF panel (SGC Frankfurt)
Description: as §1

MAPK14 = molecular target: T21, MAPK14 (Homo sapiens, UniProt Q16539); test: DSF; format: binding
T21 construct: purchased in-house DSF panel (SGC Frankfurt)
Description: as §1

MAPK15 = molecular target: T22, MAPK15 (Homo sapiens, UniProt Q8TD08); test: DSF; format: binding
T22 construct: purchased in-house DSF panel (SGC Frankfurt)
Description: as §1

MAPK8 = molecular target: T23, MAPK8 (Homo sapiens, UniProt P45983); test: DSF; format: binding
T23 construct: purchased in-house DSF panel (SGC Frankfurt)
Description: as §1

MAPK9 = molecular target: T24, MAPK9 (Homo sapiens, UniProt P45984); test: DSF; format: binding;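 further: compound tested at 10 µM with 2 µM protein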
T24 construct: purchased in-house DSF panel (SGC Frankfurt)
Description: as §1

MARK3 = molecular target: T25, MARK3 (Homo sapiens, UniProt P27448); test: DSF; format: binding
T25 construct: purchased in-house DSF panel (SGC Frankfurt)
Description: as §1

NEK1 = molecular target: T26, NEK1 (Homo sapiens, UniProt Q96PY6); test: DSF; format: binding
T26 construct: purchased in-house DSF panel (SGC Frankfurt)
Description: as §1

NEK7 = molecular target: T27, NEK7 (Homo sapiens, UniProt Q8TDX7); test: DSF; format: binding
T27 construct: purchased in-house DSF panel (SGC Frankfurt)
Description: as §1

PIM1 = molecular target: T28, PIM1 (Homo sapiens, UniProt P11309); test: DSF; format: binding
T28 construct: purchased in-house DSF panel (SGC Frankfurt)
Description: as §1

PIM3 = molecular target: T29, PIM3 (Homo sapiens, UniProt Q86V86); test: DSF; format: binding;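 further: compound tested at 10 µM with 2 µM protein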
T29 construct: purchased in-house DSF panel (SGC Frankfurt)
Description: as §1

RPS6KA1 = test: DSF; format: binding;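 further: compound tested at 10 µM with 2 µM protein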
Description: as §1

RPS6KA5 = test: DSF; format: binding
Description: as §1

RPS6KA6 = test: DSF; format: binding
Description: as §1

SPRK1 = molecular target: T30, SPRK1 (Homo sapiens, UniProt Q96SB4); test: DSF; format: binding
T30 construct: purchased in-house DSF panel (SGC Frankfurt)
Description: as §1

SRC = molecular target: T31, SRC (Homo sapiens, UniProt P12931); test: DSF; format: binding;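 further: compound tested at 10 µM with 2 µM protein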
T31 construct: purchased in-house DSF panel (SGC Frankfurt)
Description: as §1

TAF1 = test: DSF; format: binding;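 further: compound tested at 10 µM with 2 µM protein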
Description: as §1

UKL3 = molecular target: T32, UKL3 (Homo sapiens, UniProt Q6PHR2); test: DSF; format: binding;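 further: compound tested at 10 µM with 2 µM protein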
T32 construct: purchased in-house DSF panel (SGC Frankfurt)
Description: as §1

CSNK2A1 = CSNK2A1 (Homo sapiens, UniProt P68400)

N#CCc1ccc(Nc2nccc(Nc3cc(C4CC4)[nH]n3)n2)cc1 [compound 1, reference compound]
ΔTm AKT3 (AKT3): 1.4 °C | Kinases with shifts > 5°C [1]: 60

CN[C@@H]1C[C@H]2O[C@@](C)([C@@H]1OC)n1c3ccccc3c3c4c(c5c6ccccc6n2c5c31)C(=O)NC4 [staurosporine, reference compound]
ΔTm AKT3 (AKT3): 6.6 °C | ΔTm MST3 (MST3): 7.3 °C | ΔTm MST4 (MST4): 6.1 °C | ΔTm AAK1 (AAK1): 15.6 °C | ΔTm BMPR2 (BMPR2): 2.6 °C | ΔTm CAMK2B (CAMK2B): 13.3 °C | ΔTm CAMK2D (CAMK2D): 16.2 °C | ΔTm CK2A2 (CK2A2): 5.6 °C | ΔTm CLK3 (CLK3): 5.6 °C | ΔTm CSNK1D (CSNK1D): 1.8 °C | ΔTm DAPK3 (DAPK3): 15.8 °C | ΔTm DMPK1 (DMPK1): 8.7 °C | ΔTm EPHA2 (EPHA2): 8.3 °C | ΔTm GPRK5 (GPRK5): 7.7 °C | ΔTm GSG2 (GSG2): 7.2 °C | ΔTm MAP2K1 (MAP2K1): 1.3 °C | ΔTm MAP2K4 (MAP2K4): 12.0 °C | ΔTm MAP2K6 (MAP2K6): 12.3 °C | ΔTm MAP3K5 (MAP3K5): 18.5 °C | ΔTm MAPK10 (MAPK10): 7.4 °C | ΔTm MAPK14 (MAPK14): 0.3 °C | ΔTm MAPK15 (MAPK15): 14.7 °C | ΔTm MAPK8 (MAPK8): 7.8 °C | ΔTm MAPK9 (MAPK9): 3.7 °C | ΔTm MARK3 (MARK3): 19.0 °C | ΔTm NEK1 (NEK1): -0.6 °C | ΔTm NEK7 (NEK7): 1.0 °C | ΔTm PIM1 (PIM1): 12.5 °C | ΔTm PIM3 (PIM3): 19.7 °C | ΔTm RPS6KA1 (RPS6KA1): 3.9 °C | ΔTm RPS6KA5 (RPS6KA5): 13.7 °C | ΔTm RPS6KA6 (RPS6KA6): -0.5 °C | ΔTm SPRK1 (SPRK1): 6.8 °C | ΔTm SRC (SRC): 5.9 °C | ΔTm TAF1 (TAF1): 0.2 °C | ΔTm UKL3 (UKL3): 19.6 °C | ΔTm CSNK2A1 (CSNK2A1): 2.1 °C
